Test results published in patent publication US20090142346A1 (Takeda / Millennium, published 2009).
Numbering of substitutions follows the chain as printed. Where two headings read alike, the source gives them in different places.

Chains of the proteins cited; added tags and fusions are not shown. Residues count along the entry.
UniProt Q9NQS3, 58-549 limits assumed: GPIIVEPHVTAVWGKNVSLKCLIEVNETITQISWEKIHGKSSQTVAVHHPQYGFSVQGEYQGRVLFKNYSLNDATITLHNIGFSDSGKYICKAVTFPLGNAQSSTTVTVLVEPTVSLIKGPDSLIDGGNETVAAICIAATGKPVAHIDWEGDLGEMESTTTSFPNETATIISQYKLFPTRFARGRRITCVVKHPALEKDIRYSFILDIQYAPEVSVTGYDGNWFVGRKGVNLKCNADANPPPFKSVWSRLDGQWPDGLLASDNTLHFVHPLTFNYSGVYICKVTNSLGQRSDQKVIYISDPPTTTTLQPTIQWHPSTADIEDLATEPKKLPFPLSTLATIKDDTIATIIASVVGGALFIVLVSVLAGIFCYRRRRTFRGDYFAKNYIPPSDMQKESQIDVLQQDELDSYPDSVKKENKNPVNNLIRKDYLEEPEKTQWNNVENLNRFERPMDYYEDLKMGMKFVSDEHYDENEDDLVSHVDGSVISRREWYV

T1: nectin-2 Ig2 domain-deficient protein (human, UniProt Q92692 32-538)
T1 construct: also called delta-Ig2; Nectin-2ΔIg2
T1 sequence: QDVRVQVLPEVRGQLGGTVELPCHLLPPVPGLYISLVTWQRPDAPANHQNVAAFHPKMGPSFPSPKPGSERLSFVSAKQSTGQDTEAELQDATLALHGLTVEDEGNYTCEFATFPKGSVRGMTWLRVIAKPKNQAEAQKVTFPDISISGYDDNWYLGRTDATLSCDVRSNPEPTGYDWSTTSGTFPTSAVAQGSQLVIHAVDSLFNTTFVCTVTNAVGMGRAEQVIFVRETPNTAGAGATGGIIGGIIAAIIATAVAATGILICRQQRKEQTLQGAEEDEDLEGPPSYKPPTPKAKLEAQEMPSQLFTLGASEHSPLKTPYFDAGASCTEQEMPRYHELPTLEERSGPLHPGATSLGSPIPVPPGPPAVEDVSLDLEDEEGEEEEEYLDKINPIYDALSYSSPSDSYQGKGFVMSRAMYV

T2: human Nec1-5 protein (human, UniProt P15151 21-417)
T2 construct: transient on CHO-K1 from pCMV-Tag4-Nec1-5; also called Necl-5
T2 sequence: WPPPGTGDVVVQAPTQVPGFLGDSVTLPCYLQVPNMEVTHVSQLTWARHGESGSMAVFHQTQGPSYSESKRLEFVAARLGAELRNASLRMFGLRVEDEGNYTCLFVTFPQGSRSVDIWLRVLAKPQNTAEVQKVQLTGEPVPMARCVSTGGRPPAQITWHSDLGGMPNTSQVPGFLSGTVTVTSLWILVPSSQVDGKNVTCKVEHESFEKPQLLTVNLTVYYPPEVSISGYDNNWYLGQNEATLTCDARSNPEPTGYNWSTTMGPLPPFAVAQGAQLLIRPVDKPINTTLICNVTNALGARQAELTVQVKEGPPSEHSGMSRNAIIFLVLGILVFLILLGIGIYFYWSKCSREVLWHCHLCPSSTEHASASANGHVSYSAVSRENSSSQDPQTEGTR

T3: human nectin-4 protein (human, UniProt Q96NY8 32-510)
T3 construct: transient on CHO-K1 from pCMV-Tag4-Nectin-4
T3 sequence: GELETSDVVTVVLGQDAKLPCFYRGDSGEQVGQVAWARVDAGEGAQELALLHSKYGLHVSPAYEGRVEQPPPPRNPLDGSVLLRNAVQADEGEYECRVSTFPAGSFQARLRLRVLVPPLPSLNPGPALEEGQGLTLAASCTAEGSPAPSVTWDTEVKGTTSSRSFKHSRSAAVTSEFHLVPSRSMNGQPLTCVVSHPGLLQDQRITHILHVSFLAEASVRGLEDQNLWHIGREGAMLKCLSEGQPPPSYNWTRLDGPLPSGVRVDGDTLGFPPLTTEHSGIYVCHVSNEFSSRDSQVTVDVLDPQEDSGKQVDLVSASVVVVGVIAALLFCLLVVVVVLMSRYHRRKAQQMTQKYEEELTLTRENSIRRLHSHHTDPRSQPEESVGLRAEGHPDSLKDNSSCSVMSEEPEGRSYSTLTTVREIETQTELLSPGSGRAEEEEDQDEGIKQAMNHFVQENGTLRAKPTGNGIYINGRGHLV

T4: human nectin-1 protein (human, UniProt Q15223 31-517)
T4 construct: transient on CHO-K1 from pCMV-Tag4-Nectin-1
T4 sequence: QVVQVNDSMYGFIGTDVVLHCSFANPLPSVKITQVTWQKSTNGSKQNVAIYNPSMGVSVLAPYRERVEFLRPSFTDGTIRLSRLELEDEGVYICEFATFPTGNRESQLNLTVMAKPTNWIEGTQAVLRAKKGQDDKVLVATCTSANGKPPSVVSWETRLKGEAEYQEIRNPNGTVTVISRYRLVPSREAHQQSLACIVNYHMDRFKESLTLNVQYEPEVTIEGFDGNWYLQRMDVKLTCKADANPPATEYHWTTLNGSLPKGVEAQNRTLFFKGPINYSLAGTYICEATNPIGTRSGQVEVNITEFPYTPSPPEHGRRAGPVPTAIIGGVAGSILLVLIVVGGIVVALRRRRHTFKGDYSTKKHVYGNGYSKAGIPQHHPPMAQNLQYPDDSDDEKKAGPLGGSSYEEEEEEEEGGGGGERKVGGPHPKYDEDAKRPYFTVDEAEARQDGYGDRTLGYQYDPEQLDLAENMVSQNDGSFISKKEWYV

B1: Nec1-803-2 (antibody, human IgG1, V domains shown)
VH: QVQLQESGPGLVKPSETLSLTCTVSGGSISSYYWTWIRQPPGKGLEWIGYIYYSGSTNSNPSLKSRVTISVDTSKNQFSLKLSSVTAADTAVYYCTRDPGEDYNYGMDVWGQGTTVTVSS
VL: AIQLTQSPSSLSASVGDRVTITCRASQGISSALAWYQQKPGKAPKLLIYDASSLESGVPSRFSGSGSGTDFTLTISSLQPEDFATYYCQQFNSYPRTFGQGTKVEIK
notes: human IgG1/k; also called Nec1-803-3
B2: Nec1-834-1 (antibody, human IgG1, V domains shown)
VH: B1 VH with G26S, G27A, T35S, S59Y, V71I, T96A, P99A, N104S
VL: AIQLTQSPSSLSASVGDRVTITCRASQGISSALAWYQQKPGKAPKLLIYDASSLESGVPSRFSGSGSGTDFTLTISSLQPEDFATYYCQQFNSYRTFGQGTKVEIK
notes: human IgG1/k

What was measured:
[1] = target: T1, nectin-2 Ig2 domain-deficient protein; assay: FCM, CHO-K1 transient
[2] = target: T1, nectin-2 Ig2 domain-deficient protein; assay: FCM, CHO-K1 transient; remark: listed apart in the source
human nectin-3 protein = target: T5, human nectin-3 protein (human, UniProt Q9NQS3 58-549); assay: FCM, CHO-K1 transient vs mock
T5 construct: transient on CHO-K1 from pCMV-Tag4-Nectin-3

human Nec1-5 protein = target: T2, human Nec1-5 protein; assay: FCM, CHO-K1 transient vs mock
human nectin-4 protein = target: T3, human nectin-4 protein; assay: FCM, CHO-K1 transient vs mock
human nectin-1 protein = target: T4, human nectin-1 protein; assay: FCM, CHO-K1 transient vs mock

Row | Binder | median fluorescence ratio [1] | median fluorescence ratio [2] | median fluorescence ratio (human nectin-3 protein) | median fluorescence ratio (human Nec1-5 protein) | median fluorescence ratio (human nectin-4 protein) | median fluorescence ratio (human nectin-1 protein)
1 | B1 | 6.2 ratio | 5.3 ratio | 1.2 ratio | 1.1 ratio | 1.1 ratio | 1.2 ratio
2 | B2 | – | – | 1.2 ratio | 1 ratio | 1.1 ratio | 1.2 ratio
